The chains behind the UniProt entries cited, without tags or fusion partners.
ATP-dependent Clp protease proteolytic subunit (Bacillus subtilis (strain 168)), P80244, UniProt P80244, whole entry, looked up: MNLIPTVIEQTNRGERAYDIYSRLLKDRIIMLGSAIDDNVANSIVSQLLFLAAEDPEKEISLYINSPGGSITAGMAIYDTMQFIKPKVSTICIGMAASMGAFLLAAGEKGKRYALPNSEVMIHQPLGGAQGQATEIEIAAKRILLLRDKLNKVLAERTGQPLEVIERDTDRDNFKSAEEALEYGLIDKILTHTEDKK

# Rows were chosen to be rich in hits. Some 2.5% of all compounds tested hit in one or more screens of this group.
# miR-21 reporter: raises the signal of a miR-21 reporter. HeLa miR-21 FLuc reporter, luciferase, 48 h. 340,000 tested, under 10 active. Potency, µM (highest dose often 38.3 µM), for the others: at the highest dose reporter change, positive = more light; active = well fitted rising curve with a large enough effect; inconclusive = small, poorly fitted or top-dose-only effect; inactive = no such curve, though single readings can be large or run the other way;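 note: % of control where 0% means no effect; miR-21 action dims this reporter so a rising signal means less miR-21 action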
#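 HeLa cells stably expressing CMV-driven firefly luciferase with a downstream miR-21 binding sequence, endogenously expressing miR-21, were treated with titrations (up to about 40uM final) for 48 hours at 37 degree Celsius. Luciferase luminescence was read after lysis.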
# TrxR1 substrate: is turned over as a substrate by rat TrxR1. O89049. purified TrxR1 substrate turnover, NADPH consumption readout. Potency, µM (top dose mostly 114 µM), for the others: at the highest dose activity change, negative = substrate turnover. 390,000 compounds, 0.01% hits; note: potency is the fitted concentration of half-maximal effect; % is set by controls: 0 for no effect and ±100 for the full control effect; nearly all actives have a fitted effect of over 50% in size
#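 Rat TrxR1, dispensed at 90 nM, was prereduced with 400 uM NADPH (final) for 5 min at ~22 deg C, then incubated with compound 15 min before 400 uM selenite. A first-read NADPH fluorescence drop versus no-compound background flagged substrates.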
# Anesthetic bind: candidate novel general anesthetic via apoferritin binding; Potency, µM (series often up to 77.5 µM), without a hit: top-dose activity change, negative = displacement, hits mostly inhibitors; P02791; 350,000 compounds, 0.074% hits; AID 485281; apoferritin/1-aminoanthracene competitive binding, fluorescence; note: potency is the fitted concentration of half-maximal effect; % is set by controls: 0 for no effect and ±100 for the full control effect; nearly all actives have a fitted effect of over 20% in size
#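 In PBS, apoferritin at 10 uM is loaded with 1-AMA from a 50% saturated solution. After 10 min of compound exposure at ambient temperature, reduced 535 nm fluorescence indicates probe displacement.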
# ClpP mod: qHTS Assay for Activators of ClpP | ATP-dependent Clp protease proteolytic subunit (Bacillus subtilis (strain 168)), P80244 | purified B. subtilis ClpP, FRET peptide cleavage, 20 min | Potency, µM (highest dose often 57.5 µM), without a hit: at the top dose activity change, negative = active | 340,000 compounds, 1.9% hits; active = well fitted falling curve with a large enough effect; inconclusive = small, poorly fitted or top-dose-only effect; inactive = no such curve, though single readings can be large or run the other way; note: potency is the fitted concentration of half-maximal effect; the source files actives as falling curves though it sought activators and does not explain the sign; nearly all actives have a fitted effect of over 65% in size
#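 Buffer: 100 mM Tris/HCl pH8, 100 mM KCl, 0.05% low protease BSA, 2.5% glycerol, 0.01% Tween-20. ClpP 10 microg/mL final; 20 min RT; delta FRET normalized to ADEP and DMSO controls.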
# rTrxR1 inhibitor: inhibitors of rat thioredoxin reductase 1; O89049; recombinant rTrxR1, NADPH fluorescence consumption, selenite substrate; Potency, µM (highest dose often 114 µM), inactives show at the highest dose activity change, negative = inhibition, most hits filed as inhibitors; 390,000 compounds, 1% hits; AID 588453; note: potency is the fitted concentration of half-maximal effect; % is set by controls: 0 for no effect and ±100 for the full control effect; nearly all actives have a fitted effect of over 65% in size
#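 Rat TrxR1 (90 nM in the dispensed reagent) was pre-reduced with 400 uM NADPH for 5 min at room temperature, then incubated with compound for 15 min. After 400 uM selenite was added, NADPH fluorescence (Ex 340/Em 450 nm) was followed for 8 min.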
# * = called active by the depositor; ? = inconclusive; nt = not tested or not shown; [ ] = dose if it differs, or a comment. Unless noted, calls come from the whole dose curve; as a rule, active = well fitted curve in the direction sought with a large enough effect; inconclusive = small, poorly fitted or top-dose-only effect, or another doubt; inactive = no such curve, though single readings can be large; an effect the other way counts as inactive or inconclusive.
SMILES,miR-21 reporter,TrxR1 substrate,Anesthetic bind,ClpP mod,rTrxR1 inhibitor
O=C(CN1C(=O)NC2(CCCC2)C1=O)NCCN1C(=O)S/C(=C\c2ccccc2F)C1=O,nt,2%[57.1 µM],nt,32µM*,3%[57.1 µM]
NC(=O)Cn1c(=O)n(CCCCCC(=O)NCc2ccccc2)c(=O)c2sccc21,-1%,-6%,-7%,1%,-15%
Cc1ccc2c(c1)c(N=NC(N)=S)c(O)n2Cc1ccccc1,-6%,12%[57.1 µM],-12%,25µM*,10%[57.1 µM]
COc1ccccc1Oc1coc2cc(O)ccc2c1=O,-13%,43%,134%,28µM*,5%[57.1 µM]
CCOc1ccc2c(=O)c(Oc3ccccc3OCC)coc2c1,-16%,-2%,-2%,-5%,2%
COc1ccc(Oc2coc3cc(OC(=O)/C=C/c4ccccc4)ccc3c2=O)cc1,-6%,-8%,0%,25µM*,-6%
CCOc1ccccc1Oc1coc2cc(O)ccc2c1=O,-31%,47%,99%,32µM*,18%[57.1 µM]
COc1ccccc1N1CCN(c2ncccc2-c2nc(-c3ccc(Cl)cc3)no2)CC1,13%,1%,-6%,-2%,19%
CC(C)NC(=O)CSc1cn(CC(=O)N2CCCCCC2)c2ccccc12,-3%,1%,-5%,-5%,13%
CCCn1c(=O)[nH]c(=O)c2c1nc(-c1ccc(OC(F)(F)C(F)C(F)(F)F)cc1)n2CCOC (configuration not stated),4%,24%[57.1 µM],-12%,28µM*,26%[57.1 µM]
O=S(=O)(c1ccc(Br)s1)N1CCN(c2cccc(C(F)(F)F)c2)CC1,19%,-7%,-15%,-1%,8%
Cc1cnc2c(c1SCC(=O)Nc1ccc(F)cc1F)c(=O)n(C)c(=O)n2C,10%,-1%[57.1 µM],-22%,0%,-4%[57.1 µM]
CC(=O)N1CCc2cc(CNC(=O)Cc3ccc(F)cc3)ccc21,-47%,-10%[57.1 µM],-12%,-1%,-8%[57.1 µM]
Cc1ccc(NC(=O)C2CCCN2S(=O)(=O)c2cccc3cccnc23)cc1C (configuration not stated),0%,-1%,-22%,-3%,13%
O=C(Cn1cnnn1)Nc1ccccc1Cc1ccccc1,-4%,9%[57.1 µM],-8%,28µM*,16%[57.1 µM]
CCCC(=O)Nc1ccc2c(c1)C(=O)N(CCC(=O)O)C2=O,0%,163%,95%,28µM*,22%
O=C(O)CCN1C(=O)c2ccc(NC(=O)c3cccs3)cc2C1=O,-6%,77%,43%,32µM*,24%[57.1 µM]
CCC(=O)Nc1ccc2c(c1)C(=O)N(C)C2=O,2%,94%,174%,28µM*,-8%
O=C(Nc1ccc2c(c1)C(=O)N(c1ccccc1)C2=O)c1cccs1,-2%,15%[57.1 µM],-3%,4%,15%
CN1C(=O)c2ccc(NC(=O)CSc3ccccc3)cc2C1=O,-13%,-1%,-5%,1%,19%
CCOC(=O)c1cc(-c2ccc(F)cc2)n(CCC(=O)Nc2ccccc2OC)c1C,12%,-3%[57.1 µM],-6%,-4%,12%[57.1 µM]
CCCC(=O)Nc1cccc(NC(=O)c2ccc([N+](=O)[O-])cc2Cl)c1,-1%,2%,-1%,1%,20%
CCCC(=O)Nc1cccc(NC(=O)c2cccc([N+](=O)[O-])c2C)c1,1%,-3%,5%,11µM*,0%
COc1ccc2[nH]c(=O)c(CN(CCN3CCCC3)C(=O)Nc3ccccc3Cl)cc2c1,18%,20%,-6%,32µM*,-14%
COc1ccc2[nH]c(=O)c(CN(CC3CCCO3)C(=O)Nc3ccccc3OC)cc2c1 (configuration not stated),29%,21%[57.1 µM],-16%,28µM*,-13%[57.1 µM]
COc1ccc(N(Cc2cc3cc(OC)ccc3[nH]c2=O)C(=O)C2CCCO2)cc1 (configuration not stated),-4%,32%[57.1 µM],-12%,18µM*,11%[57.1 µM]
Oc1ccc(Cl)cc1CNc1cnc2ccccc2c1,-4%,26%,?,4%,4%
Oc1ccc2ccccc2c1CNc1cnc2ccccc2c1,-29%,74%,nt,-2%,11µM*
Oc1ccccc1CNc1cnc2ccccc2c1,-41%,40%[57.1 µM],-5%,28µM*,-9%[57.1 µM]
Oc1ccc2ccccc2c1CNc1ccc(Br)cc1,0%,1%,-11%,53%,28µM*
CCSc1ncc(Cl)c(C(=O)Nc2ccc(S(=O)(=O)N3CCCCC3)cc2)n1,?,2%,?,-3%,23%
CC[C@H](C)[C@H](NC(=O)[C@H](CCCNC(=N)N)NC(=O)[C@@H](NC(=O)[C@H](CCCNC(=N)N)NC(=O)[C@H](CCCCN)NC(=O)[C@H](CCCNC(=N)N)NC(=O)[C@@H](NC(=O)[C@H](CC(N)=O)NC(=O)[C@@H](N)CS)[C@@H](C)O)[C@@H](C)CC)C(=O)N[C@@H](CCC(N)=O)C(=O)N[C@@H](CCCNC(=N)N)C(=O)NCC(=O)N1CCC[C@H]1C(=O)NCC(=O)N[C@@H](CCCNC(=N)N)C(=O)N[C@@H](C)C(=O)N[C@@H](Cc1ccccc1)C(=O)N[C@H](C(=O)N[C@H](C(=O)N[C@H](C(=O)NCC(=O)N[C@@H](CCCCN)C(=O)O)[C@@H](C)CC)[C@@H](C)O)C(C)C,nt,nt,-9%,nt,nt
COc1cc2c(cc1OC)CN(CCC(=O)c1ccc(Br)cc1)CC2,2%,-3%[57.1 µM],-8%,nt,0.28µM*
CCOC(=O)N1CCN(CCC(=O)c2ccc(Br)cc2)CC1,1%,11%[57.1 µM],-3%,-1%,1µM*
COc1ccc(C(=O)CCN2CCC(C)CC2)cc1,5%,0%,5%,2%,0.71µM*
CCOC(=O)N1CCN(CCC(=O)c2ccc(OC)cc2)CC1,0%,5%,0%,0%,3.5µM*
COc1ccc(C(=O)CCN2CCCC(C)C2)cc1 (configuration not stated),0%,13%[57.1 µM],33%,0%,?
CCOC(=O)N1CCN(CCC(=O)c2ccc(Cl)cc2)CC1,-4%,18%[57.1 µM],13%,-3%,?
COc1cc2c(cc1OC)CN(C(=O)CCNC(=O)c1ccc(Br)cc1)CC2,nt,-7%,nt,-2%,-11%
CCC1CN(C(=O)N2CCC(C(=O)NCCc3ccccc3Cl)CC2)c2cc(C)ccc2O1 (configuration not stated),27%,-6%,7%,3%,12%
CCOC(=O)N1CCC(NC(=O)c2cnn(-c3ccc(F)cc3)c2-n2cccc2)CC1,2%,2%,-1%,1%,0%
Cc1ccccc1CNC(=O)CN1C(=O)C2CCCCN2c2ccc(C(=O)N3CCCC3)cc21 (configuration not stated),1%,-5%[57.1 µM],-11%,-10%,8%[57.1 µM]
CCOc1ccccc1CNC(=O)c1ccc2c(c1)sc1nc(-c3cccc(OC)c3)cn12,-12%,14%[11.4 µM],-10%,4%,24%

# Five structures out of the list, ordered by heavy-atom count, rising.
SMILES,miR-21 reporter,TrxR1 substrate,Anesthetic bind,ClpP mod,rTrxR1 inhibitor
Oc1ccc2ccccc2c1CNc1cnc2ccccc2c1,-29%,74%,nt,-2%,11µM*
CCCC(=O)Nc1cccc(NC(=O)c2ccc([N+](=O)[O-])cc2Cl)c1,-1%,2%,-1%,1%,20%
CCSc1ncc(Cl)c(C(=O)Nc2ccc(S(=O)(=O)N3CCCCC3)cc2)n1,?,2%,?,-3%,23%
CCOc1ccccc1CNC(=O)c1ccc2c(c1)sc1nc(-c3cccc(OC)c3)cn12,-12%,14%[11.4 µM],-10%,4%,24%
Cc1ccccc1CNC(=O)CN1C(=O)C2CCCCN2c2ccc(C(=O)N3CCCC3)cc21 (configuration not stated),1%,-5%[57.1 µM],-11%,-10%,8%[57.1 µM]

# Compound activity as filed in PubChem BioAssay.
